Values quoted from earlier work in US20040249133A1, “Use of lipopeptides or lipoproteins for treating lung infections and lung tumours” (priority 2000, published 2004).

System: tumour metastases in the lungs
Details: inhalational administration; cited from earlier work

interleukin-2: lymphokine interleukin-2, inhalational administration
side-effects: low level of side-effects
tumour metastases in the lungs: reduction of tumour metastases in the lungs
